Assay results reported in US20250276078A1, “Camptothecin Derivative And Ligand-drug Conjugate Thereof” (Baili-Bio (Chengdu) Pharmaceutical Co., Ltd., priority 2020, published 2025).

System: MDA-MB-468
Assay: Cell activity test of camptothecin chiral derivatives (MTS)
Assay type: cell-based
Conditions: Homo sapiens, 72 h; MDA-MB-468, 3 days
Experimental: The cytotoxic activity of camptothecin chiral derivatives was determined by the following experimental procedure: the chiral derivatives of camptothecin were added to A431, MDA-MB-468, SK-BR-3, Bxpc-3 and SW620 tumor cells, respectively, and the cell survival rate was determined 72 hours later. Cell-based in vitro experiments are used to determine cell survival, cytotoxicity and programmed cell death induced by camptothecin drugs disclosed in the present invention.
The in vitro efficacy of camptothecin was determined by cell proliferation test. CellTiter 96® Aqueous One Solution Cell Proliferation Assay is commercially available (Promega Corp., Madison, WI). […] For detection, appropriate amount of CellTiter96® Aqueous One Solution Reagent is added directly into the medium of culture plate hole, incubated for 1-4 hours, and the absorbance value of 490 nm is read with enzyme label instrument.
The amount of methylate detected at 490 nm is proportional to the number of live cells in the culture. […]
In the invention, A431, MDA-MB-468, SK-BR-3, Bxpc-3 and SW620 are used as the research system of in vitro efficacy detection. […] By detecting the activity of dehydrogenase in mitochondria, IC50 was calculated to evaluate the inhibitory effect of camptothecin on cell proliferation. […]

CC[C@@]1(O)C(=O)OCc2c1cc1n(c2=O)Cc2c-1nc1cc(F)c(C)c3c1c2[C@H](NC(=O)[C@@H](O)C(F)(F)F)CC3 [Compound 6]
pIC50: 8.55

pIC50: −log10 of the molar value.
